The test addresses human Cu/Zn-superoxide dismutase (SOD1) with the ALS-linked mutation G93A (human). Description: immunoblot of an SDS-resistant dimer after SDS-PAGE.

Take “human Cu/Zn-superoxide dismutase (SOD1) with the ALS-linked mutation G93A (natural protein)”: the stoichiometry N is 2.

The record behind these values is publication PMC4237944, “SIRT1 overexpression ameliorates a mouse model of SOD1-linked amyotrophic lateral sclerosis via HSF1/HSP70i chaperone system” (2014).
